Results: ChEMBL document CHEMBL5107985, “Current progress and novel strategies that target CDK12 for drug discovery” (Eur J Med Chem, 2022)

Assay: Inhibition of recombinant Cdc2/CycB (unknown origin)
Design: species or system Homo sapiens

Q: With `CC(C)[C@H](CO)Nc1nc(Nc2cccc(Cl)c2)c2ncn(C(C)C)c2n1` [PURVALANOLA] as the compound, how does the IC50 read?
A: 4 nM
